The source of these data is patent US7648977B2, “Pharmaceutical composition having a ruthenium oxalato compound and method of using the same” (The University of Hong Kong, priority 2005, dated 2010).

One series has as its system Hut/CCR5 cells. Conditions: host cells (Hut/CCR5, GHOST/CXCR4, PBMC), MTT assay.

Consider Na7[Ru4(μ3-O)4(C2O4)6] [Complex 2], for which, where the note is “2 mM GSH aqueous solution, 7 days”, the “stability in physiological medium (UV-vis spectra)” value is “stable”. For the same substance, the “stability in H2O (UV-vis spectra)” value (H2O, standing for 7 days) is “stable”. Besides, in the series on Hut/CCR5 cells, the “cytotoxicity to the host cells” value is on record as “low cytotoxicity”.
